For experiment [1], the target named is porcine TSH receptor (solubilized porcine thyroid membranes) (porcine) (UniProt Q8SPP9). The experiment can be described thus: competitive displacement of 125I-bTSH from solubilized porcine thyroid membranes.
Experiment [2] deals with human TSH receptor on CHO cells (CHO-hTSHR clone JP09) (human) (UniProt P16473). The experiment can be described thus: cell-based or functional assay.

We go through one substance from patent EP1947117A2.

In experiment [1], “bovine thyroid stimulating hormone (bTSH) (from UniProt P01217 25-120; P01223 21-132) (ligand)” yielded an EC25 of inhibition of 125I-bTSH binding of 7.9 ng/mL. Moreover, in experiment [2], the cAMP stimulation in JP09 cells, EC50 was found to be 0.71 ng/mL and the cAMP stimulation in JP09 cells, relative potency (WT=1) was 9.4 fold (WT=1).
